Data on one compound can be found in ChEMBL document CHEMBL1130527, “Adenosine A2A antagonists with potent anti-cataleptic activity” (Bioorg Med Chem Lett, 1997).

Sequences of proteins named here, by UniProt entry; tags and fusion partners are left off.
UniProt P30543, whole entry: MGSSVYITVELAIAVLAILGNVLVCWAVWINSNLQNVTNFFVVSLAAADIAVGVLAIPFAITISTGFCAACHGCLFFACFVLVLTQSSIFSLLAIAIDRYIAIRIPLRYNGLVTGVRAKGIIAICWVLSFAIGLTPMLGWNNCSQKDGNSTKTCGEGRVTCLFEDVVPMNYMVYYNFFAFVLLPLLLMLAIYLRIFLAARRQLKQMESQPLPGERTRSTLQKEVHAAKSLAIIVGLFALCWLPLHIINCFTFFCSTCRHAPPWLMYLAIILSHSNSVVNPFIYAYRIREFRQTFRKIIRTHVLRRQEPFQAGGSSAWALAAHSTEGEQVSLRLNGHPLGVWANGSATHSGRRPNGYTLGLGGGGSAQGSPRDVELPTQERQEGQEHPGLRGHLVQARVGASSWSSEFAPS

Molecules are shown by their SMILES.

As a reminder, the Ki is the dissociation constant of the complex between target and ligand, obtained from inhibition or displacement. A high value points to a looser hold on the target.

The target in experiment [1] is T1, Adenosine receptor A2a (Rattus norvegicus, UniProt P30543).
The target in experiment [2] is T1, Adenosine receptor A2a. This is another data set of the same source.

For `CCn1c(=O)c2c(nc(/C=C/c3cc(OC)c(OC)c(OC)c3)n2C)n(CC)c1=O`, the Ki at Adenosine receptor A2a [1] was 2.4 nM; on Adenosine receptor A2a [2] it was 6.2 nM.
